US11987572B2, “Therapeutic compounds and methods of use thereof” (REGENTS OF THE UNIVERSITY OF MINNESOTA, priority 2019, dated 2024)

Molecular target: T1, His9-BRD4 D1 (Homo sapiens, UniProt O60885)
T1 construct: 7.5-60 nM for His9-tagged BRD4 D1; made in house; host or cells: E. coli BL21(DE3) with pRARE
Test: AlphaScreen assay with His9-BRD4 D1
Type: binding

Question: Which IC50 does the source give for `Cc1cc(C)cc(Oc2nccc(-c3c(-c4ccc(I)cc4)ncn3C3CCNCC3)n2)c1` here?
Answer: 0.17 µM
